Values quoted from earlier work in US20220127568A1.

Conditions: IV 50 mg; cited from earlier work

SMILES: Cc1cc(C)c(CNC(=O)c2cc(Br)c3c(c2C)O[C@](C)(C2CCC(N(C)C)CC2)O3)c(=O)[nH]1 (stereo partly shown)
- oral bio. (remark in Human Dosage column): poor oral
